From patent EP3442964B1, “NOVEL N-[(PYRIMIDINYLAMINO)PROPANYL]-AND N [(PYRAZINYLAMINO)PROPANYL]ARYLCARBOXAMIDES” (Boehringer Ingelheim International GmbH, priority 2016, dated 2017)

By UniProt entry, the sequences of proteins in these tests, tags left out.
UniProt O43614, whole entry: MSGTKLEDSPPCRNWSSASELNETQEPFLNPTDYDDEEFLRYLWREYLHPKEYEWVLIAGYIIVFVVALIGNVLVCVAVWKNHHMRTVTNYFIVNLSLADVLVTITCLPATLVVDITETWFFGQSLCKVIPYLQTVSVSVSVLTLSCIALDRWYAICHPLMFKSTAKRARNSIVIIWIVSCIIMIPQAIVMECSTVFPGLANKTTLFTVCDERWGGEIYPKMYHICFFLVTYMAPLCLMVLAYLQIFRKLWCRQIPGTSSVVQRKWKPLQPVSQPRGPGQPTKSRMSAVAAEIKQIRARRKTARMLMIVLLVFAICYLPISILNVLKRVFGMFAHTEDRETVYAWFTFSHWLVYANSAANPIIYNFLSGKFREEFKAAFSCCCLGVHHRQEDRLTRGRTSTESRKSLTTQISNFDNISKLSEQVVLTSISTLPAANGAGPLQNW
UniProt P08183, whole entry: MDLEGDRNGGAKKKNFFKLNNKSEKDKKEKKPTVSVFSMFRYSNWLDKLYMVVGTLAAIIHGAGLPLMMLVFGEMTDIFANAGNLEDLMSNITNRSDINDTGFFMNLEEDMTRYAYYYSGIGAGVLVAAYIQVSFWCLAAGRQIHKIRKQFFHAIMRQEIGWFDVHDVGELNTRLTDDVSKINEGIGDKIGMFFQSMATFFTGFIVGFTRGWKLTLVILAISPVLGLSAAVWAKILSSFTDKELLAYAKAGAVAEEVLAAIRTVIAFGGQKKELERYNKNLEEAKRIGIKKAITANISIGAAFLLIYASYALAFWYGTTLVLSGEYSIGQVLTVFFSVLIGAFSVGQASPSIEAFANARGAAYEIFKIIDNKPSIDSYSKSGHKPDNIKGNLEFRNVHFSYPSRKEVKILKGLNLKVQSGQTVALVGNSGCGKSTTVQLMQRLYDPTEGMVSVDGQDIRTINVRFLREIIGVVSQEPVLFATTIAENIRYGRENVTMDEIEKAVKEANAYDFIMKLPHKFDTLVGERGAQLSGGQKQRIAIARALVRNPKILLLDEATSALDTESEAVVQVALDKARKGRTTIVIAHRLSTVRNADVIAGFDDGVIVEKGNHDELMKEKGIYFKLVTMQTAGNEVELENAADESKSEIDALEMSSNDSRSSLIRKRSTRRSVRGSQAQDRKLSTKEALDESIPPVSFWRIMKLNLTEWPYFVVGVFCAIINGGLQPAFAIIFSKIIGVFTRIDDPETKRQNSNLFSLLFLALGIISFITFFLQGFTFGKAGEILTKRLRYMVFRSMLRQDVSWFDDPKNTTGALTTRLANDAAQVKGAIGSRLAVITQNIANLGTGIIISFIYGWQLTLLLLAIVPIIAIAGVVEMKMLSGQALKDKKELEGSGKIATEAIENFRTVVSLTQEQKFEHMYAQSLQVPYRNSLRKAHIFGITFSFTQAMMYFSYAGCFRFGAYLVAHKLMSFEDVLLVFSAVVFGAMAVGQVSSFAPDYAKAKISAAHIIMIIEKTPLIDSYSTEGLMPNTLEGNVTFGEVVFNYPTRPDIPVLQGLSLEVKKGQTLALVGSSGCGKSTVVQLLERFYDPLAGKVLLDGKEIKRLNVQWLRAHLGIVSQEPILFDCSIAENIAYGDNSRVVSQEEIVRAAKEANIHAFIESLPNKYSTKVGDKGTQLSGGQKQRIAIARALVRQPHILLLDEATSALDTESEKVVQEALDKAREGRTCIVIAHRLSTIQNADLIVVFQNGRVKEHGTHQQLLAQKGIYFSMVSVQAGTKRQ
UniProt O43613, whole entry, species assumed: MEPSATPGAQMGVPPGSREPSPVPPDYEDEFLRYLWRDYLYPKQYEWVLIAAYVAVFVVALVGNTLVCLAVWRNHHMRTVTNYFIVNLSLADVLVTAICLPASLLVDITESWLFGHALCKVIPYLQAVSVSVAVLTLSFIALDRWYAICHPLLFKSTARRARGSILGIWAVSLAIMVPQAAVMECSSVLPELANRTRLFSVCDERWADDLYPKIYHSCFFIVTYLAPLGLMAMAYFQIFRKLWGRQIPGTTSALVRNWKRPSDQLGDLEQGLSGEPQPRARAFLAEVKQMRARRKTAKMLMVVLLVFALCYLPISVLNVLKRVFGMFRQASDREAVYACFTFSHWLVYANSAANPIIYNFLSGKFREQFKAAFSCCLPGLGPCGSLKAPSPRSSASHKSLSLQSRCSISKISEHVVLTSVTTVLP

What was measured:
OX2R = OX2R (Homo sapiens, UniProt O43614); details: as described in WO2013/187466; agonist 3 nM modified orexin A; cited from earlier work
human MDR1 P-gp = molecular target: T1, human MDR1 P-gp (Homo sapiens, UniProt P08183); assay: Assay D: efflux in MDCK cells transfected with the human MDR1 gene; format: in vitro ADME; details: MDCK-MDR1 monolayers, pH 7.4, 37°C, read-out: Data as determined in Assay D: MDCK efflux ratio (BA/AB)
T1 construct: expressed in transfected cells; host or cells: MDCK (MDCK-MDR1)
Experimental: The MDCK assay provides information on the potential of a compound to pass the blood brain barrier. Permeability measurements across polarized, confluent MDCK-MDR1 cell monolayers grown on permeable filter supports are used as an in vitro absorption model: apparent permeability coefficients (PE) of the compounds across the MDCK-MDR1 cell monolayers are measured (pH 7.4, 37°C) in apical-to-basal (AB) and basal-to-apical (BA) transport direction. The AB permeability (PEAB) represents drug absorption from the blood into the brain and the BA permeability (PEBA) drug efflux from the brain back into the blood via both, passive permeability as well as active transport mechanisms mediated by efflux and uptake transporters that are expressed on the MDCK-MDR1 cells, predominantly by the overexpressed human MDR1 P-gp. Identical or similar permeabilities in both transport directions indicate passive permeation, vectorial permeability points to additional active transport mechanisms. Higher PEBA than PEAB (PEBA/PEAB > 5) indicates the involvement of active efflux mediated by MDR1 P-gp, which might compromises the goal to achieve sufficient brain exposure. […]
Apparent permeability coefficients (PE) of the compounds across the MDCK-MDR1 cell monolayers are measured (pH 7.4, 37°C) in apical-to-basal (AB) and basal-to-apical (BA) transport direction. […]

OX1R = OX1R (Homo sapiens, UniProt O43613); assay: OX1R assay of WO2013/187466 (fluorescence measurement of intracellular Ca2+ changes); format: cell-based; details: from IC50 values as described in WO2013/187466

SMILES: CCN(C(=O)c1nc(C)ccc1-c1ncccn1)[C@@H](C)Cn1nnc(-c2ccc(F)cc2)n1 [Example 69 in WO2013/187466, reference compound]
- IC50 (OX2R): 1.9 µM

SMILES: CCN(C(=O)c1cc(F)ccc1-c1ncccn1)[C@@H](C)Cn1nnc(-c2ccc(F)cc2)n1 [Example 70 in WO2013/187466, reference compound]
- efflux ratio (human MDR1 P-gp): 0.8
- OX2R IC50/OX1R IC50 (OX1R): 411
